Measured values published in PMC3602246 (BMC Pharmacology & Toxicology, 2013).

By UniProt entry, the sequences of proteins in these tests, tags left out. Where a name states a change or a piece, a line headed by the entry shows the natural chain unless it says otherwise.
UniProt P41145: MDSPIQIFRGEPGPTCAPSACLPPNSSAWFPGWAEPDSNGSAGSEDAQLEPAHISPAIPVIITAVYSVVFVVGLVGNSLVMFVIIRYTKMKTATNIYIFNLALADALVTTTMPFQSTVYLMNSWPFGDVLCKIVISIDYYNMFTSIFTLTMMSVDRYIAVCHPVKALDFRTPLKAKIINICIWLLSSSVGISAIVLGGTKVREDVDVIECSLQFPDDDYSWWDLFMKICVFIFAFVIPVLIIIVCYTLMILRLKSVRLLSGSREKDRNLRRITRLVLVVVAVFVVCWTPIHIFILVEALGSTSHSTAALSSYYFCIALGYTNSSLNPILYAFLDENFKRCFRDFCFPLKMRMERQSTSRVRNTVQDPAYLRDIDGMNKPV

Experiments:
MOR = conditions: read-out: Ki, affinity binding to the MOR; cited from earlier work
DOR = conditions: read-out: Ki, affinity binding to the DOR; cited from earlier work
KOR = conditions: read-out: Ki, affinity binding to the KOR; cited from earlier work
[1] = target: T1, human kappa opioid receptor (Homo sapiens, UniProt P41145); format: cell-based
T1 construct: FLAG; expressed in transfected cells

[2] = target: T1, human kappa opioid receptor; format: cell-based; remark: listed apart in the source

Substance	Ki (MOR) [nM]	Ki (DOR) [nM]	Ki (KOR) [nM]	DMR agonist activity classification, KOR [1]	ligand DMR in PTX-pretreated cells [2]
(Leu5)-Enkephalin	7.4	6.2	9.4		
Dynorphin A (1–13)				Full agonist	detectable P-DMR
